{
  "source": "paper PMC6929975",
  "about": "“A supramolecular protein chaperone for vaccine delivery” (Theranostics, 2020)",
  "key": {"[1]": {"system": "splenocytes", "details": "80 µg/mL"}, "[2]": {"system": "Raw 264.7 mouse macrophages", "details": "80 µg/mL"}},
  "data": [
    {"substance": "Fbp-G^DF^DF^DY [Comp. 2]", "values": [
      {"measurement": "cell viability, splenocytes", "setting": "[1]", "result": "did not remarkably reduce the cell viability"},
      {"measurement": "cell viability, Raw 264.7", "setting": "[2]", "result": "did not remarkably reduce the cell viability"}
    ]}
  ]
}
